Measured values reported in patent US7731945B2, “Immunotherapy for reversing immune suppression” (Immuno-Rx, Inc., priority 2001, dated 2010).

Assays:
[1] = test system: renal cell and malignant melanoma; conditions: cited from earlier work
[2] = test system: splenocytes and thymocytes; assay: Hydrocortisone induced thymic involution in aged mice: in vivo treatment, splenocyte and thymocyte responses and markers; design: species or system mouse; conditions: after in vivo i.p. treatment for five days, ratio to saline treated control
Excerpt: The model of hydrocortisone induced thymic involution in aged mice was used unless otherwise indicated (Hadden J W, et al., Int'l J Immunopharmacol 17:821-828 (1995)).
Female BALB/c (Life Science, St. Petersburg, Fla.) aged retired breeder mice (8-9 months) whose thymuses had begun to involute were employed in in vivo tests. Mice were weight matched and randomly pooled in groups of five. Animals were fed standard laboratory diets with drinking water ad lib. All mice, with exception of a control group, were treated intraperitoneally (i.p.) with hydrocortisone (5 mg/mouse in 0.1 ml 0.9% sodium chloride) for two consecutive days to induce a chemical thymectomy and reduction of spleen weight.
Hydrocortisone-treated adult mice show acute thymic involution (less than 30% of control) and reduction in spleen size (less than 80% of control) at two days with progressive recovery to ten days.
Each treatment group had five animals and each experiment was repeated two to five times. […]
On day 8, the mice were weighed, sacrificed by cervical dislocation, and their spleens and thymuses removed and weighed. The organs were minced, the residual erythrocytes were lysed using ammonium chloride (Mishell and Shiigi (1981)), and the cells counted.
The proliferative response of the cells to various substances was then determined. […]

| Substance | response rates [1] | proliferative responses of splenocytes to in vitro stimulation with IL-1, IL-2, NCM or ConA ([2]; FIG. 6) | proliferative responses of thymocytes to in vitro stimulation with IL-1, IL-2, NCM or ConA ([2]; FIG. 7) |
| --- | --- | --- | --- |
| IL-2: Interleukin-2 as used in prior art cancer treatment | less than 20% | – | – |
| rIL-2: recombinant interleukin-2 | – | no significant effect | no significant effect |
